Format in all cases: cell-based
For data set [1], the system named is HER2 positive NCI-N87 cells. Briefly: Antibody mediated internalization in HER2 expressing tumor cells, FACS. The settings on record: 100 nM. From the text:
(§1) The HER2 positive cell lines SKBR-3 cells and NCI-N87 cells and the test anti-HER2 ADCs (exemplary anti-HER2 ADCs ADC-2-1, ADC-2-2 and ADC-3, and the positive control ADCs DS-8201a and T-DM1) as used in Example 18 were also used in the following internalization assay. The culture conditions of two cell lines are the same as in Example 18.
(§2) Cells were harvested with 0.25% Trysin/EDTA (Tl 320, Solarbio) and adjusted the cell concentration to 4×10^6 cells/mL with 1×PBS containing 1% FBS buffer. 100 μL cells per well were then plated in the 96-well cell culture plates and incubated with Trastuzumab and the test anti-HER2 ADCs at a final concentration 100 nM for seven time points (0, 0.5, 2, 4, 8, 16, and 24 hours). The mixtures were incubated at 4° C. in an atmosphere of 5% CO2 in air. At specific time points, cells were immediately washed twice and suspended in 100 μL cold wash buffer containing 2% paraformaldehyde for 30 mins. Cells were washed twice and then incubated with 1×PE anti-human IgG Fc Antibody (Cat. No. 366904, Biolegend) at 4° C. and 5% CO2 for another one hour. After the two-step washing by washing buffer, cells were re-suspended in 100 μL FACS buffer, CytoFlex Cytometry (Beckman Coulter) was used to detect the fluorescent signals of cells. The internalization ratio at several time points were calculated as the missing rate of median fluorescence intensity (MFI) values at specific time point in that at 0 hours. Curves of internalization rate versus incubation time (hours) were plotted with the Graphpad Prism Software.

Data set [2] has as its system HER2 positive SKBR-3 cells. The description is as above. The conditions noted are these: 100 nM.
Description: as §1, §2

The subject of data set [3] is NCI-N87 cells. The data set can be described thus: In vitro cytotoxic assay of anti-HER2 ADCs (CellTiter-Glo). The conditions noted are these: 72-hour incubation, FIG. 3. As to the method:
(§3) Cytotoxicity of exemplary anti-HER2 ADCs was investigated using SKBR-3 cells (Breast cancer, ATCC No. HTB30) and NCI-N87 cells (Gastric cancer, ATCC No. CRL-5822) and compared to the positive control ADCs DS-8201a and T-DM1.
(§4) In brief, 5,000 cells/well of SKBR-3 cells and NCI-N87 cells were platted in white clear 96-well assay plates (Cat. No. 6005182, PerkinElmer) (excluding edge wells, which contained medium only) in 90 μL basic culture medium (McCoy's 5a medium for SKBR-3 cells and RPMI-1640 medium for NCI-N87 cells) containing 10% FBS, 1% Penicillin-Streptomycin Solution (BL505A, Biosharp Life Sciences), and 2 mM L-Glutamine (Cat. No. 25030081, ThermoFisher) and were grown at 37° C. in a humidified incubator at 5% CO2 atmosphere. After incubation overnight, each test anti-HER2 ADC or Trastuzumab was added to the respective wells in an amount of 10 μL of 10-concentrate tests from 100 nM to 0.015 nM. After additional 72-hour incubation, plates were removed from incubator and equilibrated to room temperature. […] After shaking the plates at 450 rpm for 3 mins followed by 10-min incubation without shaking, luminescence was measure on the Envision plate reader (Equipment No. 2104, PerkinElmer) with integration time of 250 ms per well. Curves of luminescence versus ADC concentration (μM) were fitted with GraphPad Prism Software.

Data set [4] deals with SKBR-3 cells. The description is as above. The settings on record: 72-hour incubation, FIG. 3. As to the method:
as §3, §4

On to DS-8201a, for which the “MFI value of internalization assay” value in data set [1] (0 h) was 470434.6; in data set [1] (0.5 h), 485012.7; in data set [1] (2 h) it was 453325.2; in data set [1] (4 h) it was 399661.6; in data set [1] (8 h), 361668.5; in data set [1] (16 h), 357611.1. For the same substance, the “MFI value of internalization assay” value in data set [1] (24 h) is recorded as 312219.9; in data set [2] (0 h), 111493.1; in data set [2] (0.5 h), 84105.2; in data set [2] (2 h), 91504.5; in data set [2] (4 h), 59683.6; in data set [2] (8 h), 55324.7. Also, the “MFI value of internalization assay” value came to 48587.4 in data set [2] (16 h) and 37770 in data set [2] (24 h).
“Trastuzumab: native antibody Trastuzumab (Genentech (Roche)), free antibody control”: the “MFI value of internalization assay” value was determined as 494263.3 in data set [1] (0 h); 505817.1 in data set [1] (0.5 h); 523528.4 in data set [1] (2 h); 412925.1 in data set [1] (4 h); 398055.9 in data set [1] (8 h); 408260.5 in data set [1] (16 h). Besides, the “MFI value of internalization assay” value in data set [1] (24 h) is 347311; in data set [2] (0 h) it was 114620.8; in data set [2] (0.5 h), 80551.7; in data set [2] (2 h), 88422.6; in data set [2] (4 h), 66067.7; in data set [2] (8 h), 53596.8. Also, the results for the “MFI value of internalization assay” value in data set [2] (16 h) and in data set [2] (24 h) were 61201.3 and 43793.5, respectively. In addition, the cytotoxic activity entry in data set [3] and in data set [4] was “only limited cytotoxic activity even at high concentrations” throughout.

(Values after US20250205356A1, “POLYMER-DRUG CONJUGATES” (PRIMELINK BIOTHERAPEUTICS (SHENZHEN) CO., LTD, priority 2022, published 2025).)
